The target of one experiment is Grb2 SH2 domain (Homo sapiens, UniProt P62993). Briefly: Biacore binding assay (surface plasmon resonance), inhibition of SH2 domain binding. As to conditions: read-out: IC50 average value, SH2 domain binding inhibition; solution IC50, SPR. How it is done:
This Example illustrates the biological activity of the compounds of formula X as Grb2 SH2 domain binding inhibitors.
The Biacore Binding Assay
Inhibition of SH2 domain binding was determined by the Surface Plasmon Resonance (SPR) method. The solution IC50 values for peptide binding inhibition were measured as described in Yao et al., J. Med. Chem., 42, 25-35 (1999). Compounds 11, 12, and 20a had IC50 average values of 155 nM, 500 nM, and 117 nM, respectively.
For orientation: In SPR one partner is held on a chip, and binding of the other changes the refractive index at the surface.

The chains behind the UniProt entries cited, without tags or fusion partners. Residues count along the entry.
UniProt P62993, whole entry: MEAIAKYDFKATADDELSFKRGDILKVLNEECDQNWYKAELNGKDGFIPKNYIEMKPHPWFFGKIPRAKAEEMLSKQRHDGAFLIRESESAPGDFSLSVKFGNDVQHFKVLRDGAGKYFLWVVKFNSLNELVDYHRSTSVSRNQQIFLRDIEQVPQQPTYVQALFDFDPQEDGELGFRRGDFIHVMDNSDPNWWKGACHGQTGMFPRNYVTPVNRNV
UniProt P62993, 60-152 limits assumed: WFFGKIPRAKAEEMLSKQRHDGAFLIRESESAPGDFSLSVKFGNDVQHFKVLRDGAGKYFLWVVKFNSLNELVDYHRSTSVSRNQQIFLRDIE

The next experiment concerns the target Grb2 (Homo sapiens, UniProt P62993). Briefly: ELISA assay of Grb2 binding inhibition. The conditions noted are these: FIG. 19. How it is done: The Grb2 binding inhibition also was determined by carrying but an ELISA assay. Compounds 11 and 12 were effective in inhibiting Grb2 binding.
The subject of experiment [1] is MDA-MB-453 human breast cancer cells. Nature of the experiment: Inhibition of cell proliferation assay on plastics. As to conditions: MDA-MB-453, FIG. 17a. An excerpt: (§1) FIGS. 17a-c depict the human breast cancer cell growth and proliferation inhibition by compounds 11, 12, 36, and 38. FIG. 17a depicts the proliferation inhibition of human breast cancer cells MDA-MB-453; FIG. 17b depicts growth inhibition of MDA-MB-453; and FIG. 17c depicts a lack of growth inhibition of MDA-MB-253 breast cancer cells.
(§2) Cell lines were obtained from the American Type Culture Collection (Rockville, Md.) and Lombardi Cancer Center, Georgetown University Medical Center. Cells were routinely maintained in improved minimal essential medium (IMEM, Biofluids, Rockville, Md.) with 10% fetal bovine serum. Cultures were maintained in a humidified incubator at 37° C. and 5% CO2.
The effect of Grb2 inhibitors on protein synthesis was determined by two growth assays. The first assay, inhibition of cell proliferation assays were carried out on plastics to directly measure the cell killing activity. Cells that have amplified erbB-2 signaling such as the MDA-453 cells are inhibited by treatment with the tested inhibitors.

For experiment [2] the test system is unchanged. Briefly: Cell growth inhibition assay (XTT). The conditions noted are these: MDA-MB-453, FIG. 17b.
Excerpt: as §1, §2
(§3) The second assay, a soluble tetrazolium/formazan (XTT) assay for cell growth in a 96-well plate was performed. Cells (2,000-4,000 cells/well) were grown in IMEM medium with 10% FBS and were treated with increasing concentrations of Grb2 inhibitors(1-50 uM). After 6-8 days culture, XTT (1.0 mg/ml plus PMS at 1.53 mg/ml) was added to each well and incubated for four hours at 37° C. Absorbance at 450 nm was measured with the Dynatech Model MR700.

The test system of experiment [3] is MDA-MB-253 breast cancer cells. Briefly: Cell growth inhibition assay. As to conditions: MDA-MB-253, FIG. 17c. The protocol:
as §1, §3

The next experiment concerns MAP kinase. Briefly: Inhibition of MAP kinase in heregulin-treated MDA-453 cells (phospho-p44/42 MAP kinase antibody blot). The conditions noted are these: MDA-453 cells treated with HRG, blotting. The protocol:
The present invention further provides a method of inhibiting the MAP kinase activity in a mammal. MAP kinases function in a protein kinase cascade that plays a critical role in the regulation of cell growth and differentiation. MAP kinases are activated by a variety of signals including growth factors, cytokines and hormones through Grb2 and other signaling proteins. For example, the state of threonine and tyrosine phosphorylation of cellular MAP kinase is determined in MDA-453 cells treated with growth factor heregulin (HRG) using a polyclonal antibody specifically recognizing the phosphorylated threonine and tyrosine residues of MAP kinase. A dose-dependent inhibition of MAP kinase activity is observed in MDA-MB-453 cells. The IC50 value of MAP kinase inhibition is 12.5 μM for compound 126, which is in consistent with cell growth inhibition.
MAP kinases function in a protein kinase cascade that plays a critical role in the regulation of cell growth and differentiation. […] The inhibition of MAP kinase in MDA-453 cells treated with growth factor heregulin (HRG) by MAP kinase specific antibody was measured. […] The protein concentration was determined by BCA method (Pierce, Rockford, Ill.). […] Activation of MAP kinase was detected with a specific antibody, i.e., phospho-p44/42 MAP kinase antibody (New England BioLabs) and visualized with ECL (Amersham, Arlington Heights, Ill.).

SMILES strings stand for the structures.

The term IC50 denotes the concentration at which inhibition is half-maximal. Regarding `CC(=O)N[C@@H](Cc1ccc(C(C(=O)O)C(=O)O)cc1)C(=O)NC1(C(=O)N[C@@H](CC(N)=O)C(=O)NCCCc2cccc3ccccc23)CCCCC1`, the IC50 at Grb2 SH2 domain is 500 nM. The Grb2 binding inhibition result at Grb2 is given as “effective in inhibiting Grb2 binding”. In addition, the proliferation inhibition result in experiment [1] is given as “proliferation inhibition”. Further, the growth inhibition result is reported as “growth inhibition” in experiment [2] and “lack of growth inhibition” in experiment [3].

With `NC(=O)C[C@H](NC(=O)C1(NC(=O)[C@H](Cc2ccc(C(C(=O)O)C(=O)O)cc2)NC(=O)C(=O)O)CCCCC1)C(=O)NCCCc1cccc2ccccc12`, the IC50 at Grb2 SH2 domain amounted to 155 nM. The “inhibition of MAP kinase” value with MAP kinase is given as “over 60%”. Besides, on Grb2, the Grb2 binding inhibition entry was “effective in inhibiting Grb2 binding”. Besides, the proliferation inhibition entry in experiment [1] is given as “proliferation inhibition”. For the same compound, the growth inhibition entry is “growth inhibition” in experiment [2] and “lack of growth inhibition” in experiment [3].

For the origin of these results see US7825216B2.
